Measurements taken from US20240254119A1 (THIRD HARMONIC BIO, INC., priority 2022, published 2024).

Amino acid sequences for entries named in this document (tags omitted). Residues count along the entry.
UniProt P07333, 20-972 limits assumed: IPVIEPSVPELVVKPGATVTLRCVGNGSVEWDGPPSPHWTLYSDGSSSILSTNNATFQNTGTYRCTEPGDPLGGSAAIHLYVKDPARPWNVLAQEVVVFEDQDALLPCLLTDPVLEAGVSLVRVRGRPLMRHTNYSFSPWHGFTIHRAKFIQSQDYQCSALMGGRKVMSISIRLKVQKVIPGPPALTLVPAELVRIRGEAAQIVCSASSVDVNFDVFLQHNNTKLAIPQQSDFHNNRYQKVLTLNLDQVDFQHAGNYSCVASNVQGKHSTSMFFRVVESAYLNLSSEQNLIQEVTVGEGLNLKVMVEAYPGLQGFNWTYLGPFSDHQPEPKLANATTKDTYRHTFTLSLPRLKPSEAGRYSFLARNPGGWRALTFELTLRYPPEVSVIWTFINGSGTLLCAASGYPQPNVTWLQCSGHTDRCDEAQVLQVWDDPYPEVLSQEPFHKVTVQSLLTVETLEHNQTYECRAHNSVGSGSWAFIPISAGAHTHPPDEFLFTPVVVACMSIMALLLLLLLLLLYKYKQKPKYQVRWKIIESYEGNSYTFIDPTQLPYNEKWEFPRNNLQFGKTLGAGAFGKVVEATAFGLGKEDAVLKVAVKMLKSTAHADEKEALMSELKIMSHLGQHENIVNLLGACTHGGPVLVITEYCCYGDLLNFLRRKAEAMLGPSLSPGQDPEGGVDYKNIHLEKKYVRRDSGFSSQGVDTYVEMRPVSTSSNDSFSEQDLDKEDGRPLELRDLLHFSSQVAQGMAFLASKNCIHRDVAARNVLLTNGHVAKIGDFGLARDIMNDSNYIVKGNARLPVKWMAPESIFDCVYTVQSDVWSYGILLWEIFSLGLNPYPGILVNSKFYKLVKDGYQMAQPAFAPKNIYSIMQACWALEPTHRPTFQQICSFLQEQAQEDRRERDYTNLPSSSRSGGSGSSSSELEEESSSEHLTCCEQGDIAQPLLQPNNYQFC
UniProt P16234, 24-1089 limits assumed: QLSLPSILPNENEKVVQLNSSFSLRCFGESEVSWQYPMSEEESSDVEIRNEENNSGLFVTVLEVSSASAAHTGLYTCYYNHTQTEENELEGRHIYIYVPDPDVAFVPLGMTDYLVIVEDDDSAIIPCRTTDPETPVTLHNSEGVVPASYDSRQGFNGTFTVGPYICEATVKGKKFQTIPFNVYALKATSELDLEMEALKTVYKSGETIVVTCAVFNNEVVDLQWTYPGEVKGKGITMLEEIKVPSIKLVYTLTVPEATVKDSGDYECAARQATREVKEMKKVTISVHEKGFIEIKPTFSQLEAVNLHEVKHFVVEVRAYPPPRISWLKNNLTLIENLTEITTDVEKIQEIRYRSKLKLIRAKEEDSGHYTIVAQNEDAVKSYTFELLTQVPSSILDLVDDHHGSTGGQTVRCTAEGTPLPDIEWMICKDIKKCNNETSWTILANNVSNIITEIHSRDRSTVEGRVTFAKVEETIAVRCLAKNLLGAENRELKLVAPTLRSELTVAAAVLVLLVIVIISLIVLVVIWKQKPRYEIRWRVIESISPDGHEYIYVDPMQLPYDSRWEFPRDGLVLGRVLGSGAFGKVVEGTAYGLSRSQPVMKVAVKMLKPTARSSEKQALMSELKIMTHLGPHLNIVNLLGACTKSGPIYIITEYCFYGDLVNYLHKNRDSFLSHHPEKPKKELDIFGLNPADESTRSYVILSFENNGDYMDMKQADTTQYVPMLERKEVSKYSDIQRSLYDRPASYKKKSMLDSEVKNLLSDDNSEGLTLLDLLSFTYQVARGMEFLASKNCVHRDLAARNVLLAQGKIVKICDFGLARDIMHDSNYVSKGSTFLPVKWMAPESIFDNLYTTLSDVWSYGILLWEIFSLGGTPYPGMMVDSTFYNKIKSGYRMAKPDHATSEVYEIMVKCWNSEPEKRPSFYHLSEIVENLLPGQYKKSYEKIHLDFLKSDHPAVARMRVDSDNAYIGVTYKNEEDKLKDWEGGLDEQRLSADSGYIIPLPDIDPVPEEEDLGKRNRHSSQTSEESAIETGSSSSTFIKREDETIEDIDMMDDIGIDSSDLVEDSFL
UniProt P10721, 26-976 limits assumed: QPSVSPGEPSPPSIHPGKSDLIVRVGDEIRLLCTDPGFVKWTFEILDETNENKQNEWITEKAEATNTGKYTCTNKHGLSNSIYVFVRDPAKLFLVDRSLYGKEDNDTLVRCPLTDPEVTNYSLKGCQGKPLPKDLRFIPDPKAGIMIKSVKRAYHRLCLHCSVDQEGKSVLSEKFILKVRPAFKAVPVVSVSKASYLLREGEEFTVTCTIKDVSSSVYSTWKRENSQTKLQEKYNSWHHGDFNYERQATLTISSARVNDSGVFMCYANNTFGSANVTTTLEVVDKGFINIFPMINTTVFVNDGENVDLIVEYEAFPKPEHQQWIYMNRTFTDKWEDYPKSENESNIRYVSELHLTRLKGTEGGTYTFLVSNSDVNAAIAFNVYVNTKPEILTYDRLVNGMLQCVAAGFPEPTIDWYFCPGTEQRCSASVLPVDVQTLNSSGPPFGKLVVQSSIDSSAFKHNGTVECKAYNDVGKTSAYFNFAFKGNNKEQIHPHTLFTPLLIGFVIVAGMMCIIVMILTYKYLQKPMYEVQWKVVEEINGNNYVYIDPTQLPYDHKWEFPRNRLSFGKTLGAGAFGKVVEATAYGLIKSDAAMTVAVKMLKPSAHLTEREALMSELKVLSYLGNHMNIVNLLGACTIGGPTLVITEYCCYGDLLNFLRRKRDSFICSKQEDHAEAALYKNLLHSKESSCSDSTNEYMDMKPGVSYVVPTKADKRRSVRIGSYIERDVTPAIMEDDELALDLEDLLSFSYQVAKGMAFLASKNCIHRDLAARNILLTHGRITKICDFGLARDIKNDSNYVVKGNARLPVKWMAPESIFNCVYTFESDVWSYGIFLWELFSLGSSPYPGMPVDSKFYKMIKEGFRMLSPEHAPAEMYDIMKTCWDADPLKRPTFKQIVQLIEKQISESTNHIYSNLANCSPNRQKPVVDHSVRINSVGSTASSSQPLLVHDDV

Experiments:
CSF-1R = CSF-1R (Homo sapiens, UniProt P07333); assay: Caliper biochemical assay, CSF-1R; conditions: read-out: CSF-1R Biochemical IC50, Table 6
PDGFRα = PDGFRα (Homo sapiens, UniProt P16234); assay: Caliper biochemical assay, PDGFRα; conditions: read-out: PDGFRα Biochemical Avg IC50, Table 6
wtKIT [1] = target: T1, wtKIT (Homo sapiens, UniProt P10721); assay: Caliper biochemical assay, wtKIT; conditions: read-out: KIT Biochemical IC50 avg, Table 6
Kinetic solubility assay = conditions: 50 mM PB (pH 7.4), shaken 24 hours at RT
wtKIT [2] = target: T1, wtKIT; assay: HTRF biochemical assay, wtKIT (phosphorylation of a peptide substrate); conditions: read-out: KIT Biochemical IC50 avg, Table 4

Row | SMILES | IC50 (CSF-1R) [µM] | IC50 (PDGFRα) [µM] | IC50 (wtKIT [1]) [µM] | Solubility (μM) (Kinetic solubility assay) | IC50 (wtKIT [2]) [µM]
1 | CCNc1ccc2ncc(C(=O)Nc3cc(-c4noc(CC)n4)ccc3C)n2c1 | < 0.05 | 0.05 to 0.5 | < 0.05 | – | –
2 | COCCS(=O)(=O)N1CCC1c1nc(-c2ccc(C)c(NC(=O)c3cnc4ccccn34)c2)no1 (stereo not drawn) | – | – | < 0.05 | ** (a solubility greater than 10 μM and less than or equal to 50 μM) | 0.05 to 0.5
3 | Cc1ccc(-c2noc(C(C)CO)n2)cc1NC(=O)c1cnc2ccccn12 (single isomer, unassigned) [I-170] | < 0.05 | 0.5 to 5 | 0.5 to 5 | ** (a solubility greater than 10 μM and less than or equal to 50 μM) | –
4 | Cc1ccc(-c2noc(C3CCS(=O)(=O)N3)n2)cc1NC(=O)c1cnc2ccccn12 (single isomer, unassigned) [I-248] | – | – | 0.05 to 0.5 | *** (a solubility greater than 2 μM and less than or equal to 10 μM) | 0.05 to 0.5
5 | CCNc1ccn2c(C(=O)Nc3cc(-c4noc(CC)n4)ccc3C)cnc2c1 | < 0.05 | 0.05 to 0.5 | < 0.05 | **** (a solubility less than or equal to 2 μM) | –
6 | Cc1ccc(-c2noc(C(C)CO)n2)cc1NC(=O)c1cnc2ccccn12 (single isomer, unassigned) [I-171] | 0.5 to 5 | 0.5 to 5 | < 0.05 | * (a solubility greater than 50 μM) | –
7 | Cc1ccc(-c2noc([C@H]3C[C@@H]3F)n2)cc1NC(=O)c1cnc2cc(Nc3ccc(OC(F)F)cc3)ccn12 | – | – | < 0.05 | ** (a solubility greater than 10 μM and less than or equal to 50 μM) | –
8 | Cc1ccc(-c2noc(CNS(C)(=O)=O)n2)cc1NC(=O)c1cnc2ccccn12 | 0.5 to 5 | 0.5 to 5 | 0.05 to 0.5 | ** (a solubility greater than 10 μM and less than or equal to 50 μM) | –
9 | Cc1ccc(-c2noc(C3CCO3)n2)cc1NC(=O)c1cnc2ccccn12 (stereo not drawn) | 0.05 to 0.5 | 0.5 to 5 | < 0.05 | ** (a solubility greater than 10 μM and less than or equal to 50 μM) | –
10 | COC(=O)NC1CC(c2nc(-c3ccc(C)c(NC(=O)c4cnc5ccccn45)c3)no2)C1 (stereo not drawn) | 0.5 to 5 | 0.5 to 5 | 0.05 to 0.5 | **** (a solubility less than or equal to 2 μM) | –
11 | Cc1ccc(-c2noc([C@@H](C)NS(C)(=O)=O)n2)cc1NC(=O)c1cnc2ccccn12 | 0.05 to 0.5 | 0.5 to 5 | < 0.05 | * (a solubility greater than 50 μM) | –
12 | CCCS(=O)(=O)N1CC(c2nc(-c3ccc(C)c(NC(=O)c4cnc5ccc(NCC)cn45)c3)no2)C1 | 0.05 to 0.5 | 0.5 to 5 | < 0.05 | – | –
13 | COC(=O)N1CC(c2nc(-c3ccc(C)c(NC(=O)c4cnc5cc(O[C@H]6CC[C@@H]6O)ccn45)c3)no2)C1 (relative stereo) | < 0.05 | 0.5 to 5 | < 0.05 | – | 0.05 to 0.5
14 | Cc1ccc(-c2noc(C3=CC(C)(C)C3)n2)cc1NC(=O)c1cnc2ccccn12 | < 0.05 | 0.05 to 0.5 | < 0.05 | **** (a solubility less than or equal to 2 μM) | –
15 | Cc1ccc(-c2noc(C34CCC(CC3(F)F)C4)n2)cc1NC(=O)c1cnc2ccccn12 (stereo not drawn) | – | – | < 0.05 | **** (a solubility less than or equal to 2 μM) | –
16 | Cc1ccc(-c2noc([C@H]3CCN3)n2)cc1NC(=O)c1cnc2ccccn12 | – | – | < 0.05 | * (a solubility greater than 50 μM) | 0.05 to 0.5
17 | Cc1ccc(-c2noc(C34CCOC(C)(C3)C4)n2)cc1NC(=O)c1cnc2ccccn12 | – | – | 0.05 to 0.5 | **** (a solubility less than or equal to 2 μM) | –
18 | CCNc1ccn2c(C(=O)Nc3cc(-c4noc([C@H]5C[C@@H]5F)n4)ccc3C)cnc2c1 | < 0.05 | < 0.05 | < 0.05 | *** (a solubility greater than 2 μM and less than or equal to 10 μM) | –
19 | Cc1ccc(-c2noc(C3CCS(=O)(=O)N3)n2)cc1NC(=O)c1cnc2ccccn12 (single isomer, unassigned) [I-249] | – | – | < 0.05 | *** (a solubility greater than 2 μM and less than or equal to 10 μM) | 0.05 to 0.5
20 | Cc1ccc(-c2noc([C@H]3CCN3C(=O)OC(C)(C)C)n2)cc1NC(=O)c1cnc2ccccn12 | – | – | 0.05 to 0.5 | ** (a solubility greater than 10 μM and less than or equal to 50 μM) | –

Row | SMILES | IC50 (CSF-1R) [µM] | IC50 (PDGFRα) [µM] | IC50 (wtKIT [1]) [µM] | Solubility (μM) (Kinetic solubility assay) | IC50 (wtKIT [2]) [µM]
21 | O=C(Nc1cc(-c2noc([C@H]3CCN3)n2)ccc1Cl)c1cnc2ccccn12 | < 0.05 | 0.05 to 0.5 | < 0.05 | **** (a solubility less than or equal to 2 μM) | –
22 | Cc1ccc(-c2noc([C@H]3C[C@H](F)CN3)n2)cc1NC(=O)c1cnc2ccccn12 | 0.05 to 0.5 | 0.5 to 5 | < 0.05 | – | –
23 | Cc1ccc(-c2noc(C3CC3F)n2)cc1NC(=O)c1cnc2ccc(C3COC3)cn12 (single isomer, unassigned) | < 0.05 | < 0.05 | < 0.05 | **** (a solubility less than or equal to 2 μM) | –
24 | CCNc1ccc2ncc(C(=O)Nc3cc(-c4noc(C)n4)ccc3C)n2c1 | < 0.05 | 0.05 to 0.5 | < 0.05 | – | –
25 | Cc1ccc(-c2noc([C@H]3C[C@@H](F)CN3)n2)cc1NC(=O)c1cnc2ccccn12 | 0.05 to 0.5 | 5 to 30 | 0.05 to 0.5 | * (a solubility greater than 50 μM) | –
26 | Cc1ccc(-c2noc([C@H]3C[C@@H]3F)n2)cc1NC(=O)c1cnc2cc(Nc3ccc4c(c3)CCC4)ccn12 | – | – | < 0.05 | *** (a solubility greater than 2 μM and less than or equal to 10 μM) | –
27 | Cc1ccc(-c2noc(C3CC(C)(O)C3)n2)cc1NC(=O)c1cnc2ccccn12 (stereo not drawn) | 0.05 to 0.5 | 0.05 to 0.5 | < 0.05 | * (a solubility greater than 50 μM) | –
28 | Cc1ccc(-c2noc(C3CC3F)n2)cc1NC(=O)c1cnc2ccc(Nc3ccccc3)cn12 (stereo not drawn) | < 0.05 | < 0.05 | < 0.05 | **** (a solubility less than or equal to 2 μM) | –
29 | CCCS(=O)(=O)N1CC(c2nc(-c3ccc(C)c(NC(=O)c4cnc5cc(NCC)ccn45)c3)no2)C1 | < 0.05 | 0.05 to 0.5 | < 0.05 | **** (a solubility less than or equal to 2 μM) | –
30 | COC12CCCCC(c3nc(-c4ccc(C)c(NC(=O)c5cnc6ccccn56)c4)no3)(C1)C2 | < 0.05 | 0.05 to 0.5 | < 0.05 | **** (a solubility less than or equal to 2 μM) | –
31 | COC(=O)N1CC(c2nc(-c3ccc(C)c(NC(=O)c4cnc5ccc(OC(C)CO)cn45)c3)no2)C1 (single isomer, unassigned) [I-203] | 0.05 to 0.5 | 0.5 to 5 | < 0.05 | **** (a solubility less than or equal to 2 μM) | –
32 | CO[C@H]1C[C@@H](c2nc(-c3ccc(C)c(NC(=O)c4cnc5ccccn45)c3)no2)C12CCC2 (relative stereo) | – | – | < 0.05 | ** (a solubility greater than 10 μM and less than or equal to 50 μM) | –
33 | Cc1ccc(-c2noc(C34CCC(C)(CC3)CC4)n2)cc1NC(=O)c1cnc2ccccn12 | – | – | < 0.05 | **** (a solubility less than or equal to 2 μM) | –
34 | Cc1ccc(-c2noc(C[C@H]3CCCO3)n2)cc1NC(=O)c1cnc2cc(-c3cscn3)ccn12 | – | – | – | – | < 0.05
35 | Cc1ccc(-c2noc([C@H]3C[C@@H]3F)n2)cc1NC(=O)c1cnc2cc(OC(C)C(F)(F)F)ccn12 (single isomer, unassigned) | – | – | – | – | 0.05 to 0.5
36 | Cc1ccc(-c2noc(CC3CCCO3)n2)cc1NC(=O)c1cnc2cc(Cl)ccn12 (single isomer, unassigned) | – | – | – | – | < 0.05
37 | Cc1ccc(-c2noc(C34CC3CCC4(F)F)n2)cc1NC(=O)c1cnc2ccccn12 (stereo not drawn) | – | – | < 0.05 | **** (a solubility less than or equal to 2 μM) | –
38 | Cc1ccc(-c2noc([C@H]3C[C@@H]3F)n2)cc1NC(=O)c1cnc2cc(C(C)(F)F)c(F)cn12 | – | – | – | – | 0.05 to 0.5
39 | CC(=O)NCC(O)Cc1nc(-c2ccc(C)c(NC(=O)c3cnc4ccccn34)c2)no1 (stereo not drawn) | – | – | – | – | 0.5 to 5
